Experimental data: US20240132593A1 (published 2024)
Values joined by “and” are separate entries in the source; they are usually repeats but may differ in a detail not shown here. Equal values may be shown once.

Sequences of proteins named here, by UniProt entry; tags and fusion partners are left off. Residues count along the entry.
UniProt P55899, 24-297, chain 1 of 2: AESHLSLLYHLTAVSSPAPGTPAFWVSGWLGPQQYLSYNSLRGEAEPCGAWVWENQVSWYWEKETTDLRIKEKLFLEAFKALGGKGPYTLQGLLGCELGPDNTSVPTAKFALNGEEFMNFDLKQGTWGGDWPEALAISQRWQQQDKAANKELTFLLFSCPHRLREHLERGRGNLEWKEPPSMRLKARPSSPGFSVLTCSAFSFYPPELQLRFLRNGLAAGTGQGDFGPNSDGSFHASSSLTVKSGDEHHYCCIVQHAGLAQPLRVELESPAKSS

What was measured:
[1] = molecular target: FcRn receptor (biotinylated, AlphaLisa binding kit Perkin Elmer #AL3095C) (UniProt P55899, in part; P61769, in part, biotinylated (sites not given)); test: AlphaLISA FcRn binding assay
[2] = molecular target: T1, immunoglobulin gamma Fc receptor 1 (FcγR1) (biotinylated, AlphaLisa binding kit Perkin Elmer #AL3081C) (UniProt P12314 16-288, biotinylated (sites not given)); test: AlphaLISA FcγR1 binding assay
T1 chain: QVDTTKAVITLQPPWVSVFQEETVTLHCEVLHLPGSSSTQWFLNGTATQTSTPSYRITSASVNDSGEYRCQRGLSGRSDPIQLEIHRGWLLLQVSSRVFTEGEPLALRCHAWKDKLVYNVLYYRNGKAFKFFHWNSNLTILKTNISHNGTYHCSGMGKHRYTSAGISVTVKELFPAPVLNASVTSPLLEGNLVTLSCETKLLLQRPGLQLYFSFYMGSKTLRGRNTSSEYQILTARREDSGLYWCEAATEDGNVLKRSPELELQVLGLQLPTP

Row | Binder | EC50 [1] | EC50 [2]
1 | Ab No. 289.4(LS) (antibody) chain 1: MGWSCIILFLVATATGVHSQLQLQESGPGLVKPSETLSLTCIVSGGSISSSGYYWGWIRQPPGKGLEWIGSIFYSGNTHYNPSLKSRVTIPVDTSKNQFSLKLSSVTAADSAVYYCARRDILTGPFDYWGQGTLVTVSSAASTKGPSVFPLAPCSRSTSESTAALGCLVKDYFPEPVTVSWNSGALTSGVHTFPAVLQSSGLYSLSSVVTVPSSSLGTKTYTCNVDHKPSNTKVDKRVESKYGPPCPSCPAPEFLGGPSVFLFPPKPKDTLMISRTPEVTCVVVDVSQEDPEVQFNWYVDGVEVHNAKTKPREEQFNSTYRVVSVLTVLHQDWLNGKEYKCKVSNKGLPSSIEKTISKAKGQPREPQVYTLPPSQEEMTKNQVSLTCLVKGFYPSDIAVEWESNGQPENNYKTTPPVLDSDGSFFLYSRLTVDKSRWQEGNVFSCSVLHEALHSHYTQKSLSLSLGK chain 2: MGWSCIILFLVATATGVHSDIQMTQSPSSLSASVGDRVTITCQASQDITNYLTWYQQKPGNAPKLLIYDASNLETGVPSRFSGSGSGTDFTFTINSLQPEDVATYFCQQYDNLPTFGGGTKVEIKRTVAAPSVFIFPPSDEQLKSGTASVVCLLNNFYPREAKVQWKVDNALQSGNSQESVTEQDSKDSTYSLSSTLTLSKADYEKHKVYACEVTHQGLSSPVTKSFNRGEC | 0.284 nM and 0.0426 µg/mL | –
2 | Ab No. 289.4 (LS) (antibody) chain 1: MGWSCIILFLVATATGVHSQLQLQESGPGLVKPSETLSLTCIVSGGSISSSGYYWGWIRQPPGKGLEWIGSIFYSGNTHYNPSLKSRVTIPVDTSKNQFSLKLSSVTAADSAVYYCARRDILTGPFDYWGQGTLVTVSSAASTKGPSVFPLAPCSRSTSESTAALGCLVKDYFPEPVTVSWNSGALTSGVHTFPAVLQSSGLYSLSSVVTVPSSSLGTKTYTCNVDHKPSNTKVDKRVESKYGPPCPSCPAPEFLGGPSVFLFPPKPKDTLMISRTPEVTCVVVDVSQEDPEVQFNWYVDGVEVHNAKTKPREEQFNSTYRVVSVLTVLHQDWLNGKEYKCKVSNKGLPSSIEKTISKAKGQPREPQVYTLPPSQEEMTKNQVSLTCLVKGFYPSDIAVEWESNGQPENNYKTTPPVLDSDGSFFLYSRLTVDKSRWQEGNVFSCSVLHEALHSHYTQKSLSLSLGK chain 2: MGWSCIILFLVATATGVHSDIQMTQSPSSLSASVGDRVTITCQASQDITNYLTWYQQKPGNAPKLLIYDASNLETGVPSRFSGSGSGTDFTFTINSLQPEDVATYFCQQYDNLPTFGGGTKVEIKRTVAAPSVFIFPPSDEQLKSGTASVVCLLNNFYPREAKVQWKVDNALQSGNSQESVTEQDSKDSTYSLSSTLTLSKADYEKHKVYACEVTHQGLSSPVTKSFNRGEC | – | 9 nM and 1.39 µg/mL
